Source: ChEMBL document CHEMBL5032539, “Indole-Containing Amidinohydrazones as Nonpeptide, Dual RXFP3/4 Agonists: Synthesis, Structure-Activity Relationship, and Molecular Modeling Studies” (J Med Chem, 2021)

target: T1, Relaxin receptor 1 (Homo sapiens) (UniProt Q9HBX9); experiment: Agonist activity at human RXFP1 expressed in human CHO-K1 cells assessed as inhibition of H2 relaxin-induced cAMP accumulation at 10 uM incubated for 30 mins by TR-FRET assay relative to H2 relaxin; type: functional, cell-based; parameters: scale not given: the % may be the effect or the level left
T1 sequence (whole entry): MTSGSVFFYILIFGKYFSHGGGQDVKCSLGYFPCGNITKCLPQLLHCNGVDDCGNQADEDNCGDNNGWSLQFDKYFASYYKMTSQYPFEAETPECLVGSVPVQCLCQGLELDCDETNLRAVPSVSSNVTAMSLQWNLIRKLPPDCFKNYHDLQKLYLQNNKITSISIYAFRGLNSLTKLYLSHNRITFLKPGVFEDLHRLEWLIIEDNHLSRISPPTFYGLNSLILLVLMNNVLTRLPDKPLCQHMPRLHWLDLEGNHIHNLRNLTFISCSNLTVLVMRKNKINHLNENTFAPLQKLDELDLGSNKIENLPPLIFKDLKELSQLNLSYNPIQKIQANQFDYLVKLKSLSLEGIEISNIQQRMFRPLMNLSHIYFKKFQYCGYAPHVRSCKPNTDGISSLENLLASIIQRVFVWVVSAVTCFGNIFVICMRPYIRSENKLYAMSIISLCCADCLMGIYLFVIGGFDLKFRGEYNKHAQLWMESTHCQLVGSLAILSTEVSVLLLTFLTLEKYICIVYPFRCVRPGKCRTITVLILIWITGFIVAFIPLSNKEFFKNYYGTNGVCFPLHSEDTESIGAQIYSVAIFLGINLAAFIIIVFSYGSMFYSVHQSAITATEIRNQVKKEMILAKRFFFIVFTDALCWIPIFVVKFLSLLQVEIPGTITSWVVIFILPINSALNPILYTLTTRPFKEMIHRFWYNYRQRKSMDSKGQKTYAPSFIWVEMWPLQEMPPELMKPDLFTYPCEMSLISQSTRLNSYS

Q: CCc1cc(O)cc2c(/C=N/NC(=N)NCCc3ccc(Cl)cc3)c[nH]c12 was tested. Which Activity did it give?
A: < 10%

Q: For COc1cc(C)c2[nH]cc(/C=N/NC(=N)NCCc3cccs3)c2c1, which Activity is on record?
A: < 15%

Q: For COC(=O)c1ccc(CCNC(=N)N/N=C/c2c[nH]c3c(C)cc(OC)cc23)cc1, which Activity is on record?
A: < 10%

Q: For COc1cc(C)c2[nH]cc(/C=N/NC(=N)NCCc3ccc(Cl)cc3)c2c1, which Activity is on record?
A: < 10%

Q: Which Activity does the source give for CCc1cc(C#N)cc2c(/C=N/NC(=N)NCCc3cccnc3)c[nH]c12 here?
A: < 15%

Q: With COc1cc(C)c2[nH]cc(/C=N/NC(=N)NCCc3ccc(C#N)cc3)c2c1 as the compound, how does the Activity read?
A: < 10%

Q: For COc1cc(C)c2[nH]cc(/C=N/NC(=N)NCCc3ccc(N(C)C)cc3)c2c1, which Activity is on record?
A: < 10%

Q: CCc1cc(OC)cc2c(/C=N/NC(=N)NCCc3ccc(Cl)cc3)c[nH]c12 was tested. Which Activity did it give?
A: < 10%

Q: How did the Activity turn out when COc1cc(C)c2[nH]cc(/C=N/NC(=N)NCCc3cccnc3)c2c1 was run?
A: < 10%

Q: For COc1cc(C)c2[nH]cc(/C=N/NC(=N)NCCc3ccc(I)cc3)c2c1, which Activity is on record?
A: < 10%

Q: How did the Activity turn out when COc1cc(C)c2[nH]cc(/C=N/NC(=N)NCCc3ccc(F)cc3)c2c1 was run?
A: < 10%

Q: With COc1cc(C)c2[nH]cc(/C=N/NC(=N)NCCc3ccncc3)c2c1 as the compound, how does the Activity read?
A: < 10%

Q: With COc1cc(C)c2[nH]cc(/C=N/NC(=N)NCCc3ccsc3)c2c1 as the compound, how does the Activity read?
A: < 10%

Q: COc1ccc(CCNC(=N)N/N=C/c2c[nH]c3c(C)cc(OC)cc23)cc1 was tested. Which Activity did it give?
A: < 10%

Q: How did the Activity turn out when COC(=O)c1ccc(CCNC(=N)N/N=C/c2c[nH]c3c(C)cc(C#N)cc23)cc1 was run?
A: < 10%

Q: CCc1cc(OC)cc2c(/C=N/NC(=N)NCCc3ccc(C#N)cc3)c[nH]c12 was tested. Which Activity did it give?
A: < 10%

Q: For CCc1cc(OC)cc2c(/C=N/NC(=N)NCCc3cccnc3)c[nH]c12, which Activity is on record?
A: < 10%

Q: Which Activity does the source give for COc1cc(C)c2[nH]cc(/C=N/NC(=N)NCCc3ccccn3)c2c1 here?
A: < 10%

Q: Which Activity does the source give for CCc1cc(OC)cc2c(/C=N/NC(=N)NCCc3ccc(F)cc3)c[nH]c12 here?
A: < 10%

Q: For COc1cc(C)c2[nH]cc(/C=N/NC(=N)NCCc3ccc(Br)cc3)c2c1, which Activity is on record?
A: < 10%

Q: For COc1cc(C)c2[nH]cc(/C=N/NC(=N)NCCc3ccc([N+](=O)[O-])cc3)c2c1, which Activity is on record?
A: < 10%

Q: For Cc1cc(C#N)cc2c(/C=N/NC(=N)NCCc3ccc(Cl)cc3)c[nH]c12, which Activity is on record?
A: < 10%
